These results are taken from paper PMC5524369.

Test [1] concerns the target complement 3b (human) (UniProt P01024).
Test [2] shares this target. This is another data set of the same source.
Test [3] has the same target. This is another data set of the same source.

“Tamm-Horsfall protein (from UniProt P07911 25-614) (natural protein)”: the cofactor in CFI-mediated C3b degradation: amount of CFH whose cofactor activity equals that of 5 μg THP (extrapolated from the CFH dose curve) in the test with complement 3b (human) [1] is 0.37 ng CFH. In the test with complement 3b (human) [2], the cofactor in CFI-mediated C3b degradation, 5 μg THP from 5 females, 37°C for 4 h: band intensity ratio C3bα41/C3b ß-chain is 0.397; the cofactor in CFI-mediated C3b degradation, 5 μg THP from 5 females, 37°C for 4 h: band intensity ratio C3bα62/C3b ß-chain turned out to be 0.565; the cofactor in CFI-mediated C3b degradation, 5 μg THP from 5 males, 37°C for 4 h: band intensity ratio C3bα41/C3b ß-chain came out at 0.443; the cofactor in CFI-mediated C3b degradation, 5 μg THP from 5 males, 37°C for 4 h: band intensity ratio C3bα62/C3b ß-chain turned out to be 0.535. Moreover, in the test with complement 3b (human) [3], the cofactor in CFI-mediated C3b degradation, "high" CFH THP sample (5.3 pg CFH/5 μg THP), 37°C for 4 h: band intensity ratio C3bα62/C3b ß-chain was found to be 0.36 and the cofactor in CFI-mediated C3b degradation, "low" CFH THP sample (1.1 pg CFH/5 μg THP), 37°C for 4 h: band intensity ratio C3bα62/C3b ß-chain was 0.37.
